Source: ChEMBL document CHEMBL1133046, “Effects of isosteric pyridone replacements in androgen receptor antagonists based on 1,2-dihydro- and 1,2,3,4-tetrahydro-2,2-dimethyl-6-trifluoromethyl-8-pyridono[5,6-g]quin olines” (Bioorg Med Chem Lett, 2000)

Sequences of proteins named here, by UniProt entry; tags and fusion partners are left off. A change or cut given only in a name is not applied to a line headed by its entry.
UniProt P10275: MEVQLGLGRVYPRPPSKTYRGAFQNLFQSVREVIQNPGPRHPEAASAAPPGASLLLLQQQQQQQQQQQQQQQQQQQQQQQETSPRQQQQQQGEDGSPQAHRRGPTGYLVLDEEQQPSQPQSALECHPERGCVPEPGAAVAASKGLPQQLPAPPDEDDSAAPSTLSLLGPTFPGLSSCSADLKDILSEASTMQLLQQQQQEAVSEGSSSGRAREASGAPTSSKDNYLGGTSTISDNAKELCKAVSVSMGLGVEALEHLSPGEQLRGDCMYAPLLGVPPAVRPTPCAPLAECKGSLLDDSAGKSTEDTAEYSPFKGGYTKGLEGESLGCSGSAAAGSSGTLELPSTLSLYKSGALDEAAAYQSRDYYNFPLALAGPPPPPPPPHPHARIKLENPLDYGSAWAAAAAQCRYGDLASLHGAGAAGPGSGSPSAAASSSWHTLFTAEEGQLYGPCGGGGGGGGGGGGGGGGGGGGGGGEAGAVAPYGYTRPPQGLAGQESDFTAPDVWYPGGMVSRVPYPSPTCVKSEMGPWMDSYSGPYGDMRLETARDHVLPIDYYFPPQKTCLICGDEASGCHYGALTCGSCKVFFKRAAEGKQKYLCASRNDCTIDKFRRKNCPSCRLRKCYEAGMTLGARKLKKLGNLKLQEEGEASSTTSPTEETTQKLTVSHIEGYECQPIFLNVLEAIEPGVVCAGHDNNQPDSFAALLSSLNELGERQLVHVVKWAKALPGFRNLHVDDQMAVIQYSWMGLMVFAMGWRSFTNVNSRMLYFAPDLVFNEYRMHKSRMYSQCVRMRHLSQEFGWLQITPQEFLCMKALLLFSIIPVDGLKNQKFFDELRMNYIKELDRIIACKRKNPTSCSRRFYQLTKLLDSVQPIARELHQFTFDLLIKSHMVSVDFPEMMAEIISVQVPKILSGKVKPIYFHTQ

Biological target: Androgen receptor (Homo sapiens, UniProt P10275)
Experiment: biochemical

COc1ccc(CNc2cc(C(F)(F)F)c3cc4c(cc3n2)NC(C)(C)CC4)cc1
Ki: > 1000 nM
